“Also recorded” adds a separate entry of the source.
Assays:
D3R [1] = biological target: T1, D3R (Homo sapiens, UniProt P35462); experiment: biochemical
D3R [2] = biological target: T1, D3R; experiment: Surface ELISA, monoexpressed Flag-D3R; assay type: cell-based; design: host or cells: HEK293T, transient; settings: 1 µM quinpirole, 1 µM NT(8-13) or 10 nM 1d, 30 min
NTSR1-ProLink = NTSR1-ProLink (Homo sapiens, UniProt P30989); experiment: β-arrestin2 recruitment (DiscoverX PathHunter), NTSR1-ProLink; assay type: cell-based
NTSR1 = biological target: T2, NTSR1 (Homo sapiens, UniProt P30989); experiment: Surface ELISA, monoexpressed HA-NTSR1; assay type: cell-based; settings: 1 µM ligand, 30 min; relative to vehicle-treated cells
T2 construct: host or cells: HEK293T, transient

Sequences of proteins named here, by UniProt entry; tags and fusion partners are left off. A change or cut given only in a name is not applied to a line headed by its entry.
UniProt P35462, whole entry: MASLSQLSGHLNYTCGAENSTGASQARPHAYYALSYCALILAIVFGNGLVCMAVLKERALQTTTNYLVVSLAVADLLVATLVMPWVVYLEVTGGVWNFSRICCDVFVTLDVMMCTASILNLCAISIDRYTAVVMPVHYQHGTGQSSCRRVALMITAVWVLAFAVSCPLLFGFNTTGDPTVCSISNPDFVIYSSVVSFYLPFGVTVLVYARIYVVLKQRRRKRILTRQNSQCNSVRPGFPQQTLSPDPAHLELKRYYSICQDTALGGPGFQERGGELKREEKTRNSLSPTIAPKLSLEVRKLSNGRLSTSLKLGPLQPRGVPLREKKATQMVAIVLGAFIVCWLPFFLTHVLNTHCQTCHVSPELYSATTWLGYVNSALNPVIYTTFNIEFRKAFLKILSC
UniProt P30989, whole entry: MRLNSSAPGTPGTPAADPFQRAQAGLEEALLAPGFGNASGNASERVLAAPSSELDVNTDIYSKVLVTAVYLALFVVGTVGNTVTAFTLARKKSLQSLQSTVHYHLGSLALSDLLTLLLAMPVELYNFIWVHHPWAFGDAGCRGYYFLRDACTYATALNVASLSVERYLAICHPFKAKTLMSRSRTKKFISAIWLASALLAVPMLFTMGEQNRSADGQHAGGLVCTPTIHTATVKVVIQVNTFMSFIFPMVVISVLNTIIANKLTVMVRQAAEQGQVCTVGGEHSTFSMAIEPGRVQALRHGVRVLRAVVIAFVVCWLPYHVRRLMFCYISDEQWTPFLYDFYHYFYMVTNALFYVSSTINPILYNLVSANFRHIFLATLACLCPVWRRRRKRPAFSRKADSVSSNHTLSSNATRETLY

CCCN(CCCCc1cn(-c2ccc(-c3ccc(C(=O)NCCOCCOCCOCCOCCOCCOCCC(=O)NCCOCCOCCOCCOCCOCCOCCC(=O)NCCOCCOCCOCCOCCOCCOCCC(=O)NCCOCCOCCOCCOCCOCCOCCC(=O)N[C@@H](CCCNC(=N)N)C(=O)N[C@@H](CCCNC(=N)N)C(=O)N4CCC[C@H]4C(=O)N[C@@H](Cc4ccc(O)cc4)C(=O)N[C@H](C(=O)N[C@@H](CC(C)C)C(=O)O)[C@@H](C)CC)cc3)cc2)nn1)C1Cc2ccccc2C1 [1d]
Ki (D3R [1]): 0.85 ± 0.38 nM

CC[C@H](C)[C@H](NC(=O)[C@H](Cc1ccc(O)cc1)NC(=O)[C@@H]1CCCN1C(=O)[C@H](CCCNC(=N)N)NC(=O)[C@H](CCCNC(=N)N)NC(=O)CCOCCOCCOCCOCCOCCOCCNC(=O)CCOCCOCCOCCOCCOCCOCCNC(=O)CCOCCOCCOCCOCCOCCOCCNC(=O)CCOCCOCCOCCOCCOCCOCCNC(=O)c1ccc(-c2ccc(-n3cc(CCCCN4CCN(c5ccccc5OC)CC4)nn3)cc2)cc1)C(=O)N[C@@H](CC(C)C)C(=O)O [2d]
Ki (D3R [1]): 7 nM

CC[C@H](C)[C@H](NC(=O)[C@H](Cc1ccc(O)cc1)NC(=O)[C@@H]1CCCN1C(=O)[C@H](CCCNC(=N)N)NC(=O)[C@@H](N)CCCNC(=N)N)C(=O)N[C@@H](CC(C)C)C(=O)O [NT(8-13), reference compound]
surface expression of monoexpressed D3R (D3R [2]): unchanged; also recorded: did not lead to apparent changes in surface expression

CCCN1CCC[C@@H]2Cc3n[nH]cc3C[C@H]21 [quinpirole]
β-arrestin2 recruitment to NTSR1-ProLink (NTSR1-ProLink): no effect | surface expression of monoexpressed NTSR1 (NTSR1): 87 ± 6%

— paper PMC8433439, “Bivalent ligands promote endosomal trafficking of the dopamine D3 receptor-neurotensin receptor 1 heterodimer” (Communications Biology, 2021)
